# Article PMC6104643 (Journal of medicinal chemistry, 2018)
# System: IMR90 normal, human lung fibroblasts
# Conditions: listed as JG-294
smiles,measurement,value
CCn1c(=O)/c(=C2\Sc3cc(Br)ccc3N2C)s/c1=C\c1scc[n+]1Cc1ccc(C(F)(F)F)o1.[Cl-] [Compound 60],Selectivity Index (IMR-90/MCF7),more than 98
